Where two headings read alike, the source gives them in different places.
What was measured:
[1] = target: GSK3b (GST-full length GSK3b) (Homo sapiens (Human), UniProt P49841); test: GSK3b TR-FRET kinase assay; assay type: biochemical
[2] = target: GSK3α (GST-full length GSK3α) (Homo sapiens (Human), UniProt P49840); test: GSK3α TR-FRET kinase assay; assay type: biochemical
[3] = read-out: GSK3-B TR-FRET BIOCHEMICAL (TR-FRET), IC50, 1 nM GSK3b, 2 μM ATP, 30 minute preincubation (Table 16)
[4] = read-out: GSK3-A TR-FRET BIOCHEMICAL (TR-FRET), IC50, 1 nM GSK3α, 4 μM ATP, 30 minute preincubation (Table 16)
[5] = read-out: GSK3-B TR-FRET BIOCHEMICAL (TR-FRET);, 1 nM GSK3b, 2 μM ATP, 30 minute preincubation, Table 16
[6] = read-out: GSK3-A TR-FRET BIOCHEMICAL (TR-FRET);, 1 nM GSK3α, 4 μM ATP, 30 minute preincubation, Table 16
[7] = read-out: GSK3-B TR-FRET BIOCHEMICAL (TR-FRET), GMean, IC50, 1 nM GSK3b, 2 μM ATP, 30 minute preincubation, geometric mean
[8] = read-out: GSK3-A TR-FRET BIOCHEMICAL (TR-FRET), GMean, IC50, 1 nM GSK3α, 4 μM ATP, 30 minute preincubation, geometric mean
[9] = read-out: GSK3-B (TR-FRET 1 mM ATP), GMean, IC50, 1 mM ATP, geometric mean
[10] = read-out: GSK3-A (TR-FRET 1 mM ATP), GMean, IC50, 1 mM ATP, geometric mean
[11] = read-out: GSK3-B TR-FRET BIOCHEMICAL (TR-FRET), IC50, 1 nM GSK3b, 2 μM ATP, 30 minute preincubation
[12] = read-out: GSK3-A TR-FRET BIOCHEMICAL (TR-FRET), IC50, 1 nM GSK3α, 4 μM ATP, 30 minute preincubation

Sequences of proteins named here, by UniProt entry; tags and fusion partners are left off.
UniProt P49841, whole entry: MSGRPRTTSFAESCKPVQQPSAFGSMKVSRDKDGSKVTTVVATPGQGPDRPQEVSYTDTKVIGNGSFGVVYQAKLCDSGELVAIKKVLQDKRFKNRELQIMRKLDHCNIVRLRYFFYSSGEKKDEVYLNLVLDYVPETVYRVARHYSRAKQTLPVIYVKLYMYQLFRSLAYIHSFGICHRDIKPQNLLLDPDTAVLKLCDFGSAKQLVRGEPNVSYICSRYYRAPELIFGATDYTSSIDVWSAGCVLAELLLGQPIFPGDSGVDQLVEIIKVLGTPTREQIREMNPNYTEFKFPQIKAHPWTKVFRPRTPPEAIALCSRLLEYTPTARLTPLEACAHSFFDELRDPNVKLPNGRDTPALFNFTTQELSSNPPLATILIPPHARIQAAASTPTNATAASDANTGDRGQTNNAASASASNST
UniProt P49840, whole entry: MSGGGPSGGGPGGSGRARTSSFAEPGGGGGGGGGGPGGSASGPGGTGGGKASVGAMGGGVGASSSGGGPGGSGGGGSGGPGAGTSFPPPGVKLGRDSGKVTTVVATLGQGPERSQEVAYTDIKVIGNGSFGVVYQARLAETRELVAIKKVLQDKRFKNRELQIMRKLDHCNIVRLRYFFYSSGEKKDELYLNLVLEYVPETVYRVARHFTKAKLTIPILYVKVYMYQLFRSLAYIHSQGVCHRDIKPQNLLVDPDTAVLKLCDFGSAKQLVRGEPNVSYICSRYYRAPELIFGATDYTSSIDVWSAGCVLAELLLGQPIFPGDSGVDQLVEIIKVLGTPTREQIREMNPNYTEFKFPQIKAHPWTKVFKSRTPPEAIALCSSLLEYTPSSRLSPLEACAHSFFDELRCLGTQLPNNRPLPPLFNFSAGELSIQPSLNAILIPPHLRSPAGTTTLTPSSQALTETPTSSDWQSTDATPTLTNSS

CCC1(c2cccc(N3CC4CCC3C4)c2)C2=C(CC(C)(C)CC2=O)Nc2n[nH]cc21 (stereo not drawn)
IC50 [1, 3]: 100 to 1000 nM
IC50 [2, 4]: < 100 nM

CC[C@@]1(c2cccc(N(C)c3cccc(OC)n3)c2)C2=C(CC(C)(C)CC2=O)Nc2n[nH]cc21
IC50 [1, 3]: > 5000 nM
IC50 [2, 4]: > 5000 nM

CC[C@]1(c2cccc(N(C)c3ccnc(OC)c3)c2)C2=C(CC(C)(C)CC2=O)Nc2n[nH]cc21
IC50 [1, 5]: > 5000 nM
IC50 [2, 6]: > 5000 nM

CC[C@]1(c2cccc(-c3ccncc3)c2)C2=C(CC(C)(C)CC2=O)Nc2n[nH]c(C)c21
IC50 [1, 3]: 1000 to 5000 nM
IC50 [2, 4]: 100 to 1000 nM

CCC1(c2cccc(CNC)c2)C2=C(CC(C)(C)CC2=O)Nc2n[nH]cc21 (stereo not drawn)
IC50 [1, 7]: > 5000 nM
IC50 [2, 8]: 1000 to 5000 nM

CC[C@@]1(c2cccc(-c3ccnc(C)c3)c2)C2=C(CC3(CCCC3)NC2=O)Nc2n[nH]cc21
IC50 [1, 7]: < 100 nM
IC50 [2, 8]: < 100 nM

Cn1ccc(S(=O)(=O)N2CCC[C@@]3(CC2)C2=C(CC(C)(C)CC2=O)Nc2n[nH]cc23)n1
IC50 [1, 5]: < 100 nM
IC50 [2, 6]: < 100 nM

CC[C@@]1(c2cccc(-c3ccnc(C)c3F)c2)C2=C(CC(C)(C)NC2=O)Nc2n[nH]cc21
IC50 [1, 7]: 1000 to 5000 nM
IC50 [2, 8]: 100 to 1000 nM

CC[C@]1(c2cccc(-c3ccnc4c(F)cccc34)c2)C2=C(CC(C)(C)NC2=O)Nc2n[nH]cc21
IC50 [1, 9]: 1000 to 5000 nM
IC50 [1, 7]: 100 to 1000 nM
IC50 [2, 10]: 100 to 1000 nM
IC50 [2, 8]: < 100 nM

CC[C@]1(c2cccc(-c3cnnc(C)c3)c2)C2=C(CC(C)(C)NC2=O)Nc2n[nH]cc21
IC50 [1, 9]: > 5000 nM
IC50 [1, 11]: 100 to 1000 nM
IC50 [2, 10]: 100 to 1000 nM
IC50 [2, 12]: < 100 nM

CC[C@@]1(c2cccc(C(F)(F)C(F)(F)F)c2)C2=C(CC(C)(C)CC2=O)Nc2n[nH]cc21
IC50 [1, 9]: 100 to 1000 nM
IC50 [1, 5]: < 100 nM
IC50 [2, 10]: 100 to 1000 nM
IC50 [2, 6]: < 100 nM

CC[C@@]1(c2cccc(N3CCOc4ccccc43)c2)C2=C(CC(C)(C)CC2=O)Nc2n[nH]cc21
IC50 [1, 3]: > 5000 nM
IC50 [2, 4]: > 5000 nM

CC[C@]1(c2cccc(-c3cn(C)nc3C)c2)C2=C(CC(C)(C)NC2=O)Nc2n[nH]c(F)c21
IC50 [1, 7]: > 5000 nM
IC50 [2, 8]: 1000 to 5000 nM

CC[C@]1(c2cccc(-c3cn(C)nc3C)c2)C2=C(CC(C)(C)NC2=O)Nc2n[nH]c(C(F)(F)F)c21
IC50 [1, 7]: > 5000 nM
IC50 [2, 8]: 1000 to 5000 nM

CC[C@@]1(c2cccc(-c3cc[n+]([O-])c(C)c3)c2)C2=C(CC(C)(C)CC2=O)Nc2n[nH]cc21
IC50 [1, 5]: 1000 to 5000 nM
IC50 [2, 6]: 100 to 1000 nM

CCC1(c2cccc(N(C)c3ncccn3)c2)C2=C(CC(C)(C)NC2=O)Nc2n[nH]c(F)c21 (stereo not drawn)
IC50 [1, 9]: 1000 to 5000 nM
IC50 [1, 7]: < 100 nM
IC50 [2, 10]: 100 to 1000 nM
IC50 [2, 8]: < 100 nM

CCC1(c2cccc(-c3ncnc(C)c3C)c2)C2=C(CC(C)(C)CC2=O)Nc2n[nH]cc21 (stereo not drawn)
IC50 [1, 5]: 100 to 1000 nM
IC50 [2, 6]: < 100 nM

CC[C@]1(c2cccc(OC)c2)C2=C(CC(C)(C)CC2=O)Nc2n[nH]c(C(=O)OC)c21
IC50 [1, 3]: < 100 nM
IC50 [2, 4]: < 100 nM

CC[C@@]1(c2cccc(C(F)(F)F)c2)C2=C(C[C@H](c3ccccc3)NC2=O)Nc2n[nH]cc21
IC50 [1, 11]: > 5000 nM
IC50 [2, 12]: 1000 to 5000 nM

CCC1(c2cccc(N3CC4CCC(C4)C3)c2)C2=C(CC(C)(C)CC2=O)Nc2n[nH]cc21 (stereo not drawn)
IC50 [1, 3]: 1000 to 5000 nM
IC50 [2, 4]: 100 to 1000 nM

CC[C@@]1(c2cccc(-c3ccnc(C)c3)c2)C2=C(CC3(CCC3)NC2=O)Nc2n[nH]cc21
IC50 [1, 3]: > 5000 nM
IC50 [2, 4]: 1000 to 5000 nM

CC[C@@]1(c2cccc(-c3cc(C)nn3C)c2)C2=C(Nc3n[nH]cc31)[C@@H](F)C(C)(C)CC2=O
IC50 [1, 5]: 100 to 1000 nM
IC50 [2, 6]: < 100 nM

CC[C@@]1(c2cccc(N(C)c3ncccn3)c2)C2=C(CC(C)(C)CC2=O)Nc2n[nH]cc21
IC50 [1, 9]: 100 to 1000 nM
IC50 [1, 3]: < 100 nM
IC50 [2, 10]: < 100 nM
IC50 [2, 4]: < 100 nM

CCCS(=O)(=O)c1cccc([C@@]2(CC)C3=C(CC(C)(C)CC3=O)Nc3n[nH]cc32)c1
IC50 [1, 3]: > 5000 nM
IC50 [2, 4]: 1000 to 5000 nM

CC[C@@]1(c2cccc(C(F)(F)F)c2)C2=C(C[C@@H](C(C)(C)C)NC2=O)Nc2n[nH]cc21
IC50 [1, 9]: 1000 to 5000 nM
IC50 [1, 11]: 100 to 1000 nM
IC50 [2, 10]: 100 to 1000 nM
IC50 [2, 12]: < 100 nM

CC[C@@]1(c2cccc(-c3cnn(C)c3)c2)C2=C(CC(C)(C)NC2=O)Nc2n[nH]c(C(F)(F)F)c21
IC50 [1, 9]: 100 to 1000 nM
IC50 [1, 7]: < 100 nM
IC50 [2, 10]: < 100 nM
IC50 [2, 8]: < 100 nM

CCc1cccc([C@]2(CC)C3=C(CC(C)(C)CC3=O)Nc3n[nH]cc32)c1
IC50 [1, 9]: 1000 to 5000 nM
IC50 [1, 5]: < 100 nM
IC50 [2, 10]: 100 to 1000 nM
IC50 [2, 6]: < 100 nM

CCC1(c2cccc(-c3cn(C)nc3C(C)C)c2)C2=C(CC(C)(C)CC2=O)Nc2n[nH]c(C)c21 (stereo not drawn)
IC50 [1, 3]: 100 to 1000 nM
IC50 [2, 4]: < 100 nM

CC1(C)CC(=O)C2=C(C1)Nc1n[nH]cc1[C@@]21COC2(CN(C(=O)C(C)(F)F)C2)C1
IC50 [1, 11]: 100 to 1000 nM
IC50 [2, 12]: < 100 nM

CC[C@]1(c2cccc(N(C)c3cccc(C)n3)c2)C2=C(CC(C)(C)CC2=O)Nc2n[nH]cc21
IC50 [1, 5]: 100 to 1000 nM
IC50 [2, 6]: < 100 nM

CC[C@@]1(c2cccc(-c3ccnc(C)c3OC)c2)C2=C(CC(C)(C)CC2=O)Nc2n[nH]cc21
IC50 [1, 5]: > 5000 nM
IC50 [2, 6]: > 5000 nM

CC[C@@]1(c2cccc(-c3ccncc3)c2)C2=C(C[C@@H](C)CC2=O)Nc2n[nH]cc21
IC50 [1, 7]: 100 to 1000 nM
IC50 [2, 8]: < 100 nM

CC[C@@]1(c2cccc(-c3cncn3C(C)C)c2)C2=C(CC(C)(C)CC2=O)Nc2n[nH]cc21
IC50 [1, 5]: 1000 to 5000 nM
IC50 [2, 6]: 100 to 1000 nM

CC[C@@]1(c2cccc(-c3cc(C)ncc3C)c2)C2=C(CC(C)(C)CC2=O)Nc2n[nH]c(C)c21
IC50 [1, 3]: 1000 to 5000 nM
IC50 [2, 4]: 100 to 1000 nM

CC[C@]1(c2cccc(-c3ccnc(C)c3)c2)C2=C(CC(C)(C)[C@H](F)C2=O)Nc2n[nH]cc21
IC50 [1, 9]: > 5000 nM
IC50 [1, 5]: 100 to 1000 nM
IC50 [2, 10]: 1000 to 5000 nM
IC50 [2, 6]: < 100 nM

CC1(C)CC(=O)C2=C(C1)Nc1n[nH]c(C(F)(F)F)c1C21CCc2c(F)cccc21 (stereo not drawn) [Compound 806568]
IC50 [1, 7]: < 100 nM
IC50 [2, 8]: < 100 nM

CC[C@]1(c2cccc(-c3ccnc(C)c3)c2)C2=C(C[C@H](C)NC2=O)Nc2n[nH]cc21
IC50 [1, 11]: > 5000 nM
IC50 [2, 12]: 1000 to 5000 nM

CC[C@@]1(c2cccc(-c3ccnc(C(F)F)c3)c2)C2=C(CC(C)(C)CC2=O)Nc2n[nH]cc21
IC50 [1, 5]: > 5000 nM
IC50 [2, 6]: > 5000 nM

CC[C@]1(c2cccc(-c3c(C)nn(C)c3C)c2)C2=C(CC(C)(C)NC2=O)Nc2n[nH]c(C(F)(F)F)c21
IC50 [1, 7]: 1000 to 5000 nM
IC50 [2, 8]: 100 to 1000 nM

CCC1(c2cccc(N3C[C@H](C)C[C@H](C)C3)c2)C2=C(CC(C)(C)CC2=O)Nc2n[nH]cc21 (stereo partly drawn)
IC50 [1, 3]: 1000 to 5000 nM
IC50 [2, 4]: 100 to 1000 nM

CCC1(c2cccc(-c3cnn(C)c3)c2)C2=C(CC(C)(C)CC2=O)Nc2n[nH]c(C)c21 (stereo not drawn)
IC50 [1, 3]: 100 to 1000 nM
IC50 [2, 4]: < 100 nM

CC(C)(C)Cc1[nH]nc2c1[C@]1(CCc3cc(F)ccc31)C1=C(CC(C)(C)CC1=O)N2
IC50 [1, 7]: 100 to 1000 nM
IC50 [2, 8]: 100 to 1000 nM

CC[C@@]1(c2cccc(C(C)C)c2)C2=C(CC(C)(C)NC2=O)Nc2n[nH]c(C(F)(F)F)c21
IC50 [1, 9]: 100 to 1000 nM
IC50 [1, 3]: < 100 nM
IC50 [2, 10]: < 100 nM
IC50 [2, 4]: < 100 nM

CC[C@]1(c2cccc(OC)c2)C2=C(CC(C)(C)CC2=O)Nc2n[nH]c(C(F)(F)F)c21 (single isomer, unassigned)
IC50 [1, 3]: 1000 to 5000 nM
IC50 [2, 4]: 100 to 1000 nM

CCC1(c2cccc(N3CC4CCC3CC4)c2)C2=C(CC(C)(C)CC2=O)Nc2n[nH]cc21 (stereo not drawn)
IC50 [1, 3]: 100 to 1000 nM
IC50 [2, 4]: < 100 nM

CC[C@@]1(c2cccc(-c3ccnc4ccccc34)c2)C2=C(CC(C)(C)CC2=O)Nc2n[nH]cc21
IC50 [1, 5]: > 5000 nM
IC50 [2, 6]: > 5000 nM

CC[C@@]1(c2cccc(Cl)c2)C2=C(CC(C)(C)CC2=O)Nc2n[nH]c(Br)c21
IC50 [1, 7]: 100 to 1000 nM
IC50 [2, 8]: 100 to 1000 nM

From patent US20250313563A1, “GLYCOGEN SYNTHASE KINASE 3 INHIBITORS AND USES THEREOF” (The Broad Institute, Inc., priority 2022, published 2025)
